Our source for the inhibition values is PubChem BioAssay AID1117354 (Cheminformatics & Chemogenomics Research Group (CCRG), …, 2015).

Protein sequences, listed by entry. Tags and fused reporters are not part of them.
UniProt O60674, whole entry, looked up: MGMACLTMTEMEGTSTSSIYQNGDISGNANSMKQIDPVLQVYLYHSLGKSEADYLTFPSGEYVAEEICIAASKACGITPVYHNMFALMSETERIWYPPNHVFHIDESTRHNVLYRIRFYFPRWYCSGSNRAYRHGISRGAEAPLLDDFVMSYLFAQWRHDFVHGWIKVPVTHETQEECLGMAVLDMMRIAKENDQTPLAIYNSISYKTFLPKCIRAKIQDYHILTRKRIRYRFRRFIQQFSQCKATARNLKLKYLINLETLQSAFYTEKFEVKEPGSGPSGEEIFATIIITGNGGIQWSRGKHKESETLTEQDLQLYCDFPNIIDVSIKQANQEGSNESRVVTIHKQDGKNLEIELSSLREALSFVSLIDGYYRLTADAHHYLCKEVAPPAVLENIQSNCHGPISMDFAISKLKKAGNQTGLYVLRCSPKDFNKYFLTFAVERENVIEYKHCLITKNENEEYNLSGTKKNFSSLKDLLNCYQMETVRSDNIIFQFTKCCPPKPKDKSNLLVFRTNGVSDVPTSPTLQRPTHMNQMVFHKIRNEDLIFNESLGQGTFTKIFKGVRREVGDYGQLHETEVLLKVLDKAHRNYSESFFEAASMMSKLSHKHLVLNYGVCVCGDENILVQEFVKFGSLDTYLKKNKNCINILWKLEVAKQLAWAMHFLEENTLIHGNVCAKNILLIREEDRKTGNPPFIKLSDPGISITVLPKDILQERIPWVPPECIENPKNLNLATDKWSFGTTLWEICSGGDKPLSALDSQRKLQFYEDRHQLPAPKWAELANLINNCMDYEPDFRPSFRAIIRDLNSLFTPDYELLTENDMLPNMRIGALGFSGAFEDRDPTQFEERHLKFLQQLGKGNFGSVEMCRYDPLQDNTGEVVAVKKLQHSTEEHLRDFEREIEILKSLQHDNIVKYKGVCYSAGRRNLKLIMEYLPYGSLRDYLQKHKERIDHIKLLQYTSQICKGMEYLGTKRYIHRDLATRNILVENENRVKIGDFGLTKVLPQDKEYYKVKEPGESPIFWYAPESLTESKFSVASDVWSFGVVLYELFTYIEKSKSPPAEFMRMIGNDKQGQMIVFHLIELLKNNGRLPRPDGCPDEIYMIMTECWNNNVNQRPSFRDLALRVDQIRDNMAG

The source made the active and inactive calls. No rule for the calls is given here.

The target of the assay is Tyrosine-protein kinase JAK2 (Homo sapiens) (UniProt O60674). Put plainly: NCGC Pharmaceutical Collection primary HTS, Janus kinase 2 (Homo sapiens) inhibitors, biochemical, LANCE Ultra TR-FRET (AID 1117354). The following applies: LANCE Ultra TR-FRET kinase assay, at 20 µM (top of the series). In general terms: Time-resolved FRET reads energy transfer from a long-lived donor to a nearby acceptor.

For `CN(CCCl)CCCl`, the inhibition (as a rule, the change of the read-out against control, counted positive when it falls) was inactive: -1.58%.
